Reference: US20240366801A1, “HYPERPO[…] AND PRODUCT” (CAMBRIDGE ENTERPRISE LIMITED, priority 2021, published 2024)

Settings: solution exposed to UV-Vis irradiation

O=C(O)CCC(=O)C(=O)O [alpha-KG, alpha-ketoglutaric acid]
free-radical yield (conversion rate): 10-50%
